In ChEMBL document CHEMBL1134405 (J Med Chem, 2001):

Target: Adenylate cyclase (Rattus norvegicus) (UniProt D4A3N4+P26770+Q04400+P26769+Q03343+P40146+Q8CFM9+P21932)
Experiment: Relative potency was evaluated by measuring potency for conversion of [alpha-32P]ATP to cyclic 3',5'-AMP relative to glucagon
Assay type: protein assay

**Q.** For GLUCAGON, which Relative potency is on record?
**A.** 100%
